Data from US20260042834A1, “ANTI-CORTICOTROPIN-RELEASING HORMONE ANTIBODIES AND POLYCYSTIC OVARY SYNDROME” (HBM ALPHA THERAPEUTICS, INC., priority 2022, published 2026).
Where “and” joins values, the source holds several entries; their conditions need not be identical. Identical values can stand only once.

T1: biotinylated CRH (Homo sapiens, UniProt P06850)
T1 construct: purchased GL Biochem 784751
T1 sequence (P06850 154-194): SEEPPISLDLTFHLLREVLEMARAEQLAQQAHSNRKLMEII


How the values were obtained:
biotinylated CRH = target: T1, biotinylated CRH; assay: Affinity determination with Octet; assay type: binding
Procedure: Octet® Red 96e was used for affinity measurement. Octet® running buffer was prepared by diluting kinetics buffer 10× (Fortebio, Cat #18-1105) in PBS according to the manufacturer's instructions. Two columns of SA sensors (Fortebio, Cat #18-5019) were hydrated in running buffer for 10 mins, one for ligand capturing and the other for reference. Antibodies were 2-fold diluted and added into a 96-well plate. 30 nM biotinylated CRH (GL Biochem, Cat #784751) was captured by the first column of SA sensors for 20 seconds, while reference sensors were dipped into buffer wells. After a 60-second baseline step, sensors were dipped into analyte and buffer wells successively, with the association and dissociation time of 180 seconds and 800 seconds, respectively. Sensors were regenerated in glycine pH1.5 (Cytiva, Cat #BR-1003-54) before the next cycle. […] Signals of reference wells and reference sensors were subtracted by selecting “Double reference” before data fitting.

[1] = tested on: human CRHR1 (hUCN1-induced); assay: Human UCN1-induced luciferase reporter assay, CHO-CRE-hCRHR1 cells; assay type: cell-based; conditions: Table 10; 1 nM hUCN1
Procedure: CHO-CRE-hCRHR1 and CHO-CRE-hCRHR2 cells were harvested with trypsin-EDTA (Life Technologies, Cat #:12604-013). Cells were centrifuged at 1,000 rpm for 5 min and resuspended in growth medium. Cells were counted using a cell counter, seeded at 5,000 cells per 100 μl to 96-well flat plates, and incubated overnight. 50 μl of 4× serially diluted antibody (8 points, 1/3 diluted by growth medium) or CP 376395 hydrochloride (TOCRIS, Cat #:3212) (8 points, 1/10 diluted by growth medium) was added to plates, followed by 50 μl 4×hUCN1 (4× is 4 nM, final is 1 nM) to CHO-CRE-hCRHR1 cells or CHO-CRE-hCRHR2 cells. Plates were then incubated for 4-6 hours at 37° C. in a CO2 incubator. Following this, 60 μl of culture medium was removed, to which was added 60 μl of Bio-Glo luciferase, followed by incubation for 10 min at RT. Plates were then read in a luciferase plate reader (EnVision, PerkinElmer).

mouse CRHR2 = assay: CRH-induced luciferase reporter blocking assay, CHO-CRE-mCRHR2 cells; assay type: cell-based
Procedure: To create CHO-CRE-hCRHR1, -hCRHR2, -mCRHR1, and -mCRHR2 reporter cell lines, pcDNA3.1-hCRHR1, -hCRHR2, -mCRHR1, and -mCRHR2 were introduced into CHO-CRE cells established above by electroporation as described above. Selection antibiotics hygromycin at 500 μg/ml and G418 at 1,000 μg/ml were employed. Individual established stable cell lines were characterized by both CRH and forskolin stimulation. […]
(§1) Cells were digested by trypsin-EDTA (Life technologies, Cat #:12604-013), centrifuged at 1,000 rpm for 5 min, resuspended in growth medium, counted using a cell counter, seeded at a concentration of 5,000 cells per 100 μl in 96-well flat plates, and incubated overnight. 50 μl of 4× serially diluted antibodies was added (8 points, 1/4 diluted by growth medium) to plates containing CHO-CRE-hCRHR1 cells, and 50 μl of 4×CRH (4× is 2 nM, final is 0.5 nM) was added. Similarly, 4×CRH (4× is 0.4 nM, final is 0.1 nM) was added to CHO-CRE-hCRHR2 cells and CHO-CRE-mCRHR1 cells, and 4×CRH (4× is 20 nM, final is 5 nM) was added to CHO-CRE-mCRHR2 cells. Next, plates were incubated 4-6 hours at 37° C. in a CO2 incubator. 60 μl of culture medium was removed, to which was added 60 μl of Bio-Glo luciferase, followed by incubation for 10 min at RT. Plates were read in a luciferase plate reader (EnVision, PerkinElmer).

human CRHR2 = assay: CRH-induced luciferase reporter blocking assay, CHO-CRE-hCRHR2 cells; assay type: cell-based
Procedure: To create CHO-CRE-hCRHR1, -hCRHR2, -mCRHR1, and -mCRHR2 reporter cell lines, pcDNA3.1-hCRHR1, -hCRHR2, -mCRHR1, and -mCRHR2 were introduced into CHO-CRE cells established above by electroporation as described above. Selection antibiotics hygromycin at 500 μg/ml and G418 at 1,000 μg/ml were employed. Individual established stable cell lines were characterized by both CRH and forskolin stimulation.
Activated GPCR proteins increase production of the intracellular cAMP. CHO-CRE-human CRHR1 stable clone 11 was generated by introduction of pcDNA3.1-human CRHR1 under the selection of G418 and hygromycin. Human CRHR1 expression in CHO-CRE-hCRHR1 Clone 11 was confirmed by flow cytometry (data not shown). To further validate that the cell line was functional, CHO-CRE-hCRHR1 Clone 11 cells were treated with forskolin and CRH peptide. […] Subsequently CHO-CRE-hCRHR2 Clone 32, -mCRHR1 Clone 22, and -mCRHR2 Clone 8 cell lines were established using similar methodology and validated with CRH treatment (data not shown).
Blocking CRHR1 by small molecules or neutralization of CRH peptide can reduce luciferase expression if the CRH-CRHR1 system works in CHO-CRE-hCRHR1 cells. Antalarmin, a small molecule CRHR1 antagonist, blocked CRH-mediated luciferase expression in CHO-CRE-hCRHR1 Clone 11 (data not shown). Furthermore, sheep anti-CRH polyclonal antibody reduced CRH-mediated luciferase expression in these cells (data not shown). Likewise, sheep anti-CRH polyclonal antibody blocked CRH-mediated luciferase expression in CHO-CRE-hCRHR2, CHO-CRE-mCRHR1, and CHO-CRE-mCRHR2 cells (data not shown).
as §1

[2] = CHO-CRE-hCRHR2 cells, 0.1 nM CRH

kdis (biotinylated CRH)	CHO-CRE-hCRHR1 1 nM hUCH1 IC50 [1]	IC50 (mouse CRHR2; CHO-CRE-mCRHR2 cells, 5 nM CRH)	IC50 (human CRHR2; [2])	kon (biotinylated CRH)	IC50 (mouse CRHR2; Table 9, mCrhr2)	IC50 (human CRHR2; Table 9, hCRHR2)	Molecule
5.59e-05 s⁻¹ and 5.12e-05 s⁻¹	No Inhibition	12.9 nM	79.3 nM	–	–	–	PR005660: ΔPTM variant of Series 1 mAb PR004290; HCDR2 54EG55, LCDR1 36QS37 (antibody) heavy: EVQLVESGGVLVQPGGSLRLSCAASGFTFSSYWMTWVRQAPGKGLEWVANIKQEGSEKYYVDSVKGRFTISRDNAKNSLFLQMNSLRAEDTAVYYCARTLIFDYWGQGTLVTVSSASTKGPSVFPLAPSSKSTSGGTAALGCLVKDYFPEPVTVSWNSGALTSGVHTFPAVLQSSGLYSLSSVVTVPSSSLGTQTYICNVNHKPSNTKVDKKV[human IgG1 Fc not listed] light: DIVMTQSPLSLPVTPGEPASISCRSSQSLLHSTGYQSLEWYLQKPGQSPQLLIYLGSNRASGVPDRFSGSGSGTDFTLKISRVEAEDVGIYYCMQTLQTPITFGQGTRLEIKRTVAAPSVFIFPPSDEQLKSGTASVVCLLNNFYPREAKVQWKVDNALQSGNSQESVTEQDSKDSTYSLSSTLTLSKADYEKHKVYACEVTHQGLSSPVTKSFNRGEC
–	No Inhibition	8.56 nM and 8.75 nM and 4.54 nM and 7 nM and 4.91 nM	3.77 nM	–	–	–	PR004290: Series 1 anti-CRH mAb from hybridoma clone 28b3 (CRH knockout H2L2 mice), recombinant with human IgG1 wildtype Fc (antibody) heavy: EVQLVESGGVLVQPGGSLRLSCAASGFTFSSYWMTWVRQAPGKGLEWVANIKQDGSEKYYVDSVKGRFTISRDNAKNSLFLQMNSLRAEDTAVYYCARTLIFDYWGQGTLVTVSSASTKGPSVFPLAPSSKSTSGGTAALGCLVKDYFPEPVTVSWNSGALTSGVHTFPAVLQSSGLYSLSSVVTVPSSSLGTQTYICNVNHKPSNTKVDKKV[human IgG1 Fc not listed] light: DIVMTQSPLSLPVTPGEPASISCRSSQSLLHSTGYNSLEWYLQKPGQSPQLLIYLGSNRASGVPDRFSGSGSGTDFTLKISRVEAEDVGIYYCMQTLQTPITFGQGTRLEIKRTVAAPSVFIFPPSDEQLKSGTASVVCLLNNFYPREAKVQWKVDNALQSGNSQESVTEQDSKDSTYSLSSTLTLSKADYEKHKVYACEVTHQGLSSPVTKSFNRGEC
<1e-07 s⁻¹	–	–	–	2.63e+06 M⁻¹ s⁻¹	2.28 nM	~2.27 nM	PR302341-28: Series 10 humanized, PTM-removed anti-CRH mAb (Table 9), scaled up for in vivo studies (antibody) heavy: QVQLVQSGAEVKKPGASVKVSCKASGYTFTDYFMKWVRQAPGQGLEWMGVINPNQGDIFYNQKFKGRVTMTVDKSISTAYMELSRLRSDDTAVYYCARGTDRALFAYWGQGTLVTVSSASTKGPSVFPLAPSSKSTSGGTAALGCLVKDYFPEPVTVSWNSGALTSGVHTFPAVLQSSGLYSLSSVVTVPSSSLGTQTYICNVNHKPSNTKVDKKV[human IgG1 Fc not listed] light: DVVMTQSPLSLPVTLGQPASISCRSGQSIVHSDGNTYLEWYQQRPGQSPRLLIYKVSNRFSGVPDRFSGSGSGTDFTLKISRVEAEDLGVYYCFQGSHIPWTFGGGTKVEIKRTVAAPSVFIFPPSDEQLKSGTASVVCLLNNFYPREAKVQWKVDNALQSGNSQESVTEQDSKDSTYSLSSTLTLSKADYEKHKVYACEVTHQGLSSPVTKSFNRGEC
